Earlier results on one substance are cited in patent publication US11094527B2, “Wet clean solutions to prevent pattern collapse” (INTERNATIONAL BUSINESS MACHINES CORPORATION, priority 2018, dated 2021).

Consider n-butyl alcohol, for which the “Surface tension (at about 20° C.)” value was 24.6 mN/m.
